Tests used:
[1] = test system: site of thrombus formation (mesenteric vessel); assay: Real-time intraoperative thrombus detection with NIR fluorescence, mesenteric vessel injury in mice; format: in vivo, CD-1 mice; settings: injected i.v. 30 minutes after mesenteric vessel injury
Method: (§1) Animals were housed in an AAALAC-certified facility and were studied under the supervision of an approved institutional protocol. CD-1 mice weighing 30 g were from Charles River Laboratories (Wilmington, Mass.). Adult New Zealand White rabbits weighing 3 kg were from Robinson Services (Mocksville, N.C.). Yorkshire pigs weighing 30 kg were from E.M. Parsons and Sons (Hadley, Mass.). All animals acclimated to the animal facility for at least 48 hours before experimentation and were euthanized after experimentation with the use of pentobarbital (mice) or rapid intravenous injection of Fatal-Plus (Vortech Pharmaceuticals, Dearborn, Mich.; rabbits and pigs).
(§2) Anesthesia was induced with an intraperitoneal injection of pentobarbital (40 mg/kg) to mice and an intramuscular injection of ketamine (35 mg/kg) and xylazine (5 mg/kg) to rabbits. […]
(§3) The intraoperative NIR fluorescence imaging system optimized for animal surgery has been described previously in detail.^12 Briefly, it is composed of 2 wavelength-isolated excitation sources, one generating 0.5 mW/cm^2 of 400- to 700-nm “white” light and the other generating 5 mW/cm^2 of 725- to 775-nm light over a 15-cm diameter field of view. Simultaneous photon collection of color video and NIR fluorescence images is achieved with custom-designed optics that maintains separation of the white light and NIR fluorescence (>795 nm) channels. […]

[2] = test system: sites of clot formation; assay: Real-time intraoperative thrombus detection with NIR fluorescence, mesenteric vessel injury and mucosal resection of the stomach in pigs; format: in vivo, Yorkshire pigs; settings: 30-kg pigs; injected i.v. 30 minutes after injuries
Method: as §1, §2, §3

[3] = test system: sites of injury (active clot) in the stomach; assay: Thrombus detection with ^125I-FBG in rabbits (gastrotomy and mucosal injury, scintillation counting, Geiger counter); format: in vivo, New Zealand White rabbits; settings: 15 μCi/kg i.v.
Method: as §1
Anesthesia was induced with an intraperitoneal injection of pentobarbital (40 mg/kg) to mice and an intramuscular injection of ketamine (35 mg/kg) and xylazine (5 mg/kg) to rabbits. Pig anesthesia was induced with 4.4 mg/kg intramuscular Telazol (Fort Dodge Labs, Fort Dodge, Iowa), and anesthesia was maintained through a 7-mm endotracheal tube with 1.5% isoflurane/98.5% O2 at 5 L/min. After anesthesia, a laparotomy was made in the midline; the stomach and a loop of small intestine were externalized. A mesenteric vessel of the mice and pigs was lacerated and then permitted to clot, resulting in intramesenteric thrombus formation. For rabbits and pigs, a gastrotomy was made, and the posterior wall mucosa was pulled through. A 5-mm mucosectomy was performed with a scalpel. The injured area was allowed to clot and marked with a 4-0 silk suture for identification.
1.7 mg/kg FBG800 protein (10 nmol/kg of fluorophore) was injected intravenously in mice (N=4) and pigs (N=3). 15 μCi/kg was injected intravenously in rabbits (N=3). This dose is approximately 100 ng and is much less than the total fibrinogen in the rabbit. Injections occurred 30 minutes before or 30 minutes after injury as described below. For controls, the same dose of CW800-labeled human serum albumin (HSA800, N=3)^16 or radiolabeled albumin (^125I-HSA, N=3) was used.
After injection of FBG800, signal to background ratio (SBR) was measured by using as background the signal from an identically sized and shaped region of interest over adjacent mesenteric vessels or GI mucosa. After injection of ^125I-FBG, a standard Geiger counter was swept over the areas of injury to determine whether the site of injury could be recognized simply on the basis of meter readings. The entire stomach was then removed and opened. A portion of stomach away from both the gastrotomy site and the site area of mucosal injury was resected and used for background measurements. Next, the gastrotomy site was resected. Finally, the area of mucosal injury was recognized and resected. All tissues were weighed, placed in scintillation vials, and counted in a standard scintillation counter. […]

[4] = rabbits injected 30 minutes after gastrotomy
[5] = rabbits injected 30 minutes before gastrotomy, counted 3 hours after the injury

Row | Substance | Accumulation at the site of thrombus formation [1] | Accumulation at the sites of clot formation / injury [2] | Ratio of the counts at the site of (mucosal) injury as compared to uninjured mucosa [3, 4] | Ratio of the counts at the site of the gastrotomy as compared to uninjured mucosa [3, 4] | Ratio of the counts at the site of (mucosal) injury as compared to uninjured mucosa [3, 5] | Ratio of the counts at the site of the gastrotomy as compared to uninjured mucosa [3, 5]
1 | HSA800: CW800-labeled human serum albumin, control protein | no accumulation | no accumulation | – | – | – | –
2 | ^125I-HSA: ^125I radiolabeled human serum albumin, control, purchased from Amersham Biosciences | – | – | 1.2±0.1 | 1.0±0.4 | 1.7±1.0 | 1.0±0.7

From patent US20080167544A1, “Compositions And Methods For Locating An Internal Bleeding Site” (Cold Spring Diagnostics, Inc., priority 2006, published 2008)
